Rows were chosen to be rich in hits. Some 1.5% of all compounds tested hit in one or more screens of this group.
Pemphigus Ab inh = blocks pemphigus antibody binding to human desmoglein-3; P32926; DSG3-coupled beads, scFv-anti-DSG3-GFP binding, flow cytometry; hits give low values; binding (percent of control), % at 10 µM; hit rate 0.48% among 310,000; AID 588358;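 active means binding more than 3 SD below its plate's average and above zero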;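 further: hits lower antibody fragment binding to DSG3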
eIF4H FP inh = inhibitors of RNA binding by human eIF4H. Q15056. inhibition, % at 35 µM. eIF4H fluorescence polarization binding assay. hit rate 0.94% among 290,000;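 further: calls also rest on retests at 20 µM and on dose response follow-up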
Yeast UUG start-1 = yeast start codon fidelity modulation | S. cerevisiae UUG-firefly luciferase reporter, luminescence/redox ratio | activity score, % at 18.7 µM | hit rate 0.13% among 350,000 | AID 602363;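 active means replicate mean at a twofold rise or more, about +100% in these data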;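 further: firefly luciferase made from a UUG start codon reports start codon fidelity; reporter light over untreated wells divided by growth signal over untreated wells; some hits fall short of that in this replicate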
PABP FP inh = PABP-poly(A) binding inhibition. P11940. PABP-poly(A) RNA binding, fluorescence polarization. calls only at 35 µM. hit rate 1% among 290,000;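 further: calls also rest on retests at 20 µM and on dose response follow-up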
PABP1 MLLE inh = inhibitors of microRNA-mediated deadenylation, human PABP1 MLLE binding. hit rate 0.36% among 360,000. inhibition, % at 20 µM. GST-MLLE / FITC-PAM2 fluorescence polarization; in the data active means inhibition above about 35%, passing the limit was not always enough;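 further: plate controls were DMSO wells with GST-MLLE for no effect and wells lacking GST-MLLE protein for full effect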
Yeast UUG start-2 = alters UUG start codon use in yeast; activation, % at 38 µM; shares compounds with Yeast UUG start-1; 540 tested, under 10 active; S. cerevisiae UUG-start firefly luciferase, luminescence, 4 h; 100% means double the DMSO signal;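 active means signal increase whose fitted curve reaches an absolute level of 40 at a concentration under 10 µM; inactive means activity opposite to the expected increase, or the rest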
* = called active by the depositor; i = inactive; . = no result. Unless noted, how the calls were made is not given here.

| cpd | structure | Yeast UUG start-1 | PABP FP inh | Yeast UUG start-2 |
| --- | --- | --- | --- | --- |
| 1 | COc1ccc(NC(=O)CCS(=O)(=O)c2ccc(Br)s2)cc1 | -7 | i | . |
| 2 | CCOC(=O)c1ccc(NC(=O)CCS(=O)(=O)c2ccc(Br)s2)cc1 | -3 | i | . |
| 3 | COC(=O)c1ccccc1NC(=O)CCS(=O)(=O)c1ccc(Br)cc1 | . | i | . |
| 4 | COc1ccc([N+](=O)[O-])cc1NC(=O)CCS(=O)(=O)c1ccc(Br)cc1 | -14 | i | . |
| 5 | CNC(=O)C[C@H]1CC[C@@H]2[C@H](COc3ccc(NC(=O)c4cc(C)on4)cc3C(=O)N2C)O1 | -5 | . | . |
| 6 | O=C(CCS(=O)(=O)c1ccc(Br)cc1)NCc1ccco1 | -2 | i | . |
| 7 | CCOc1ccc(NC(=O)CCS(=O)(=O)c2ccc(Br)cc2)cc1 | -5 | i | . |
| 8 | CC(C)NC(=O)Nc1cccc2c1O[C@@H](CN(C)S(C)(=O)=O)[C@@H](C)CN([C@@H](C)CO)C2=O | -5 | . | . |
| 9 | Cc1noc(C)c1NC(=O)Nc1ccc2c(c1)C(=O)N([C@@H](C)CO)C[C@@H](C)[C@@H](CN(C)C(=O)NC(C)C)OCCCC[C@@H](C)O2 | 17 | . | . |
| 10 | CCOc1ccccc1Nc1nc2ccccc2[nH]1 | 581* | i | -2 |
| 11 | C[C@@H]1CCCCO[C@@H](CN(C)S(=O)(=O)c2ccccc2)[C@@H](C)CN([C@@H](C)CO)C(=O)c2cc(NS(C)(=O)=O)ccc2O1 | 8 | . | . |
| 12 | CCN(CC)CC(=O)N1c2ccccc2CCc2ccc(NC(=O)c3cc(OC)c(OC)c(OC)c3)cc21 | active | i | 0 |
| 13 | C[C@@H]1CCCCO[C@@H](CN(C)Cc2ccc(C(F)(F)F)cc2)[C@H](C)CN([C@H](C)CO)C(=O)c2cc(NS(=O)(=O)c3ccccc3)ccc2O1 | 11 | . | . |
| 14 | c1ccc2c(c1)nc(N1CCOCC1)c1nnnn12 | -18 | i | . |
| 15 | C1CN(c2nc3nonc3n3nnnc23)CCO1 | 442* | i | 8 |

| cpd | Pemphigus Ab inh | eIF4H FP inh | PABP1 MLLE inh |
| --- | --- | --- | --- |
| 1 | 116 | 91* | -1 |
| 2 | 110 | 4 | 1 |
| 3 | 106 | 86* | -6 |
| 4 | 78 | 96* | 1 |
| 5 | . | . | . |
| 6 | 128 | 81* | -7 |
| 7 | 107 | 76* | 7 |
| 8 | . | . | . |
| 9 | . | . | . |
| 10 | 99 | -14 | -19 |
| 11 | . | . | . |
| 12 | 117 | -2 | -13 |
| 13 | . | . | . |
| 14 | 105 | 29 | 36 |
| 15 | 97 | -8 | -17 |

Next section:
| cpd | structure | Yeast UUG start-1 | PABP FP inh | Yeast UUG start-2 |
| --- | --- | --- | --- | --- |
| 16 | CCN(CC)c1ccc(C=Nc2ccc(C#N)cc2)c(O)c1 | 466* | i | -6 |
| 17 | COCC(=O)N1CCN(c2ccc([N+](=O)[O-])cc2)CC1 | 671* | i | -2 |
| 18 | CO[C@H]1CN(C)C(=O)c2cc(NS(=O)(=O)c3ccc(Cl)cc3)ccc2OC[C@H](C)N(C)C[C@@H]1C | -2 | . | . |
| 19 | CCCN(CC(=O)Nc1ccccc1C)C(=O)/C=C/c1cccs1 | active | i | -4 |
| 20 | CCCN(CC(=O)Nc1ccccc1C)C(=O)Cc1cccs1 | -16 | . | . |
| 21 | CO[C@@H]1CN(C)C(=O)c2cc(NC(=O)NC3CCCCC3)ccc2OC[C@@H](C)NC[C@H]1C | 16 | . | . |
| 22 | O=C(Nc1ccccc1)NC1(c2cn(CC(=O)N3CCN(c4ccccc4)CC3)nn2)CCCCC1 | 124* | . | i |
| 23 | O=C(Nc1ccc(F)cc1)Nc1ccc2c(c1)[C@@H]1C[C@@H](CC(=O)N3CCOCC3)O[C@H](CO)[C@@H]1O2 | 6 | . | . |
| 24 | O=C(O)C[C@@H]1C[C@H]2c3cc(NC(=O)Nc4ccccc4F)ccc3O[C@H]2[C@H](CO)O1 | 5 | . | . |
| 25 | COC(=O)C[C@@H]1C[C@@H]2c3cc(NC(=O)Nc4ccccc4F)ccc3O[C@@H]2[C@@H](CO)O1 | 72* | . | i |
| 26 | COCCNC(=O)C[C@H]1C[C@H]2c3cc(NC(=O)c4ccc5c(c4)OCO5)ccc3O[C@H]2[C@@H](CO)O1 | 137* | . | i |
| 27 | COCCNC(=O)C[C@H]1C[C@@H]2c3cc(NC(=O)c4ccc5c(c4)OCO5)ccc3O[C@@H]2[C@@H](CO)O1 | 7 | . | . |
| 28 | CC(C)[N+](C)(C)CC#CC(O)(c1ccccc1)c1ccccc1 | . | . | 7 |
| 29 | C[N+]1(CC#CC(O)(c2ccccc2)c2ccccc2)CCCC1 | . | i | 5 |
| 30 | C[C@H]1CCCCO[C@H](CN(C)C(=O)Nc2ccc(F)cc2)[C@@H](C)CN([C@@H](C)CO)C(=O)c2cc(NS(=O)(=O)c3cn(C)cn3)ccc2O1 | 1 | . | . |

| cpd | Pemphigus Ab inh | eIF4H FP inh | PABP1 MLLE inh |
| --- | --- | --- | --- |
| 16 | 102 | 10 | -16 |
| 17 | 115 | -1 | -2 |
| 18 | . | . | . |
| 19 | 110 | 9 | -9 |
| 20 | . | . | -8 |
| 21 | . | . | . |
| 22 | . | . | . |
| 23 | . | . | . |
| 24 | . | . | . |
| 25 | . | . | . |
| 26 | . | . | . |
| 27 | . | . | . |
| 28 | . | . | -150 |
| 29 | 96 | 2 | -117 |
| 30 | . | . | . |

Among those listed so far, these contain two or more sulfur atoms.
| cpd | structure | Yeast UUG start-1 | PABP FP inh | Yeast UUG start-2 |
| --- | --- | --- | --- | --- |
| 1 | COc1ccc(NC(=O)CCS(=O)(=O)c2ccc(Br)s2)cc1 | -7 | i | . |
| 2 | CCOC(=O)c1ccc(NC(=O)CCS(=O)(=O)c2ccc(Br)s2)cc1 | -3 | i | . |
| 11 | C[C@@H]1CCCCO[C@@H](CN(C)S(=O)(=O)c2ccccc2)[C@@H](C)CN([C@@H](C)CO)C(=O)c2cc(NS(C)(=O)=O)ccc2O1 | 8 | . | . |

| cpd | Pemphigus Ab inh | eIF4H FP inh | PABP1 MLLE inh |
| --- | --- | --- | --- |
| 1 | 116 | 91* | -1 |
| 2 | 110 | 4 | 1 |
| 11 | . | . | . |

Additional records follow.
| cpd | structure | Yeast UUG start-1 | PABP FP inh | Yeast UUG start-2 |
| --- | --- | --- | --- | --- |
| 31 | Cc1noc(C)c1NC(=O)N[C@H]1CC[C@H](CCNC(=O)C2CC2)O[C@@H]1CO | -4 | . | . |
| 32 | O=C(C[C@H]1CC[C@H](NC(=O)Nc2ccc(C(F)(F)F)cc2)[C@@H](CO)O1)NCCN1CCCC1 | -10 | . | . |
| 33 | COCC(=O)N1C[C@H](C)[C@H](OC)CN(C)C(=O)c2cc(NC(=O)c3ccccc3)ccc2OC[C@@H]1C | 3 | . | . |
| 34 | CC(C)C[C@@H](CN)NC(=O)c1nc[nH]c1C(=O)N[C@@H](Cc1c[nH]c2ccccc12)C(=O)CNC[C@H](C)NC(=O)c1nc[nH]c1C(=O)N[C@@H](CC(=O)O)C(=O)O | 180* | . | 7 |
| 35 | CC(C)C[C@@H](CN)NC(=O)c1nc[nH]c1C(=O)N[C@@H](CC(C)C)C(=O)CNC[C@H](C)NC(=O)c1nc[nH]c1C(=O)N[C@@H](CC(C)C)C(=O)O | 5 | . | . |
| 36 | CCNC(=O)C[C@@H]1CC[C@@H](NS(=O)(=O)c2ccc(C)cc2)[C@@H](CO)O1 | 8 | . | . |
| 37 | Cc1ccc(N2CC(C(=O)Nc3nnc(SCC(N)=O)s3)CC2=O)cc1 (configuration not stated) | 164* | i | 0 |
| 38 | COc1ccc2oc(C(=O)OCC(=O)N3CCCCC3)c(C)c2c1 | -13 | . | . |
| 39 | COc1ccc2oc(C(=O)OCC(=O)NCCc3ccccc3)c(C)c2c1 | -9 | . | 0 |
| 40 | CCOc1ccc2oc(C(=O)OCC(=O)NC(=O)NC)c(C)c2c1 | -17 | i | -4 |
| 41 | COc1ccc2oc(C(=O)OCC(=O)N3CCN(C(C)=O)CC3)c(C)c2c1 | -4 | . | 1 |

| cpd | Pemphigus Ab inh | eIF4H FP inh | PABP1 MLLE inh |
| --- | --- | --- | --- |
| 31 | . | . | . |
| 32 | . | . | . |
| 33 | . | . | . |
| 34 | 162 | . | 6 |
| 35 | 111 | . | -12 |
| 36 | . | . | . |
| 37 | 106 | -14 | -63 |
| 38 | 103 | . | -1 |
| 39 | 95 | . | -10 |
| 40 | 101 | -15 | -8 |
| 41 | 100 | . | -9 |

Screening results deposited in PubChem by several laboratories.
